In PubChem BioAssay (NCI):
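In this assay, cells in 96-well plates receive the compound at five concentrations for 48 hours. Endpoints are linearly interpolated between the surrounding concentrations. GI50 = concentration required for 50% inhibition of growth. The concentration for full growth arrest is given as TGI.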

Experiments:
Assay in all cases: NCI anticancer screen, dose series, 48 h
HOP-92 NSCLC = tested on: HOP-92 NSCLC
NCI-H460 lung = tested on: NCI-H460 lung
MDA-N = tested on: MDA-N
NCI-H322M lung = tested on: NCI-H322M lung
SNB-75 CNS = tested on: SNB-75 CNS
SF-295 CNS = tested on: SF-295 CNS
SK-OV-3 ovarian = tested on: SK-OV-3 ovarian
HCT-116 colon = tested on: HCT-116 colon
A498 renal = tested on: A498 renal
SK-MEL-5 melanoma = tested on: SK-MEL-5 melanoma
A549 NSCLC = tested on: A549 NSCLC
NCI/ADR-RES ovarian = tested on: NCI/ADR-RES ovarian
MOLT-4 leukemia = tested on: MOLT-4 leukemia
OVCAR-5 ovarian = tested on: OVCAR-5 ovarian
786-0 renal = tested on: 786-0 renal
CCRF-CEM leukemia = tested on: CCRF-CEM leukemia
MDA-MB-435 = tested on: MDA-MB-435
MDA-MB-231 breast = tested on: MDA-MB-231 breast
UACC-62 melanoma = tested on: UACC-62 melanoma
SW-620 colon = tested on: SW-620 colon
SN12C renal = tested on: SN12C renal
HCT-15 colon = tested on: HCT-15 colon
U251 CNS = tested on: U251 CNS
SK-MEL-28 melanoma = tested on: SK-MEL-28 melanoma
SK-MEL-2 melanoma = tested on: SK-MEL-2 melanoma
M14 melanoma = tested on: M14 melanoma
OVCAR-3 ovarian = tested on: OVCAR-3 ovarian
SR leukemia = tested on: SR leukemia
HT29 colon = tested on: HT29 colon
EKVX NSCLC = tested on: EKVX NSCLC
RXF 393 renal = tested on: RXF 393 renal
K-562 leukemia = tested on: K-562 leukemia
OVCAR-8 ovarian = tested on: OVCAR-8 ovarian
NCI-H226 lung = tested on: NCI-H226 lung
MCF7 breast = tested on: MCF7 breast
KM12 colon = tested on: KM12 colon
SF-539 CNS = tested on: SF-539 CNS
DU-145 prostate = tested on: DU-145 prostate
PC-3 prostate = tested on: PC-3 prostate
LOX IMVI melanoma = tested on: LOX IMVI melanoma
COLO 205 colon = tested on: COLO 205 colon
HL-60(TB) leukemia = tested on: HL-60(TB) leukemia
OVCAR-4 ovarian = tested on: OVCAR-4 ovarian
TK-10 renal = tested on: TK-10 renal
IGROV1 ovarian = tested on: IGROV1 ovarian
UO-31 renal = tested on: UO-31 renal
SNB-19 CNS = tested on: SNB-19 CNS
UACC-257 melanoma = tested on: UACC-257 melanoma
ACHN renal = tested on: ACHN renal
CAKI-1 renal = tested on: CAKI-1 renal

O=[N+]([O-])c1nc(Br)n(F)c1[N+](=O)[O-]
GI50 (HOP-92 NSCLC): 41.6 µM
TGI (HOP-92 NSCLC): > 100 µM
GI50 (NCI-H460 lung): > 100 µM
TGI (NCI-H460 lung): > 100 µM
GI50 (MDA-N): > 100 µM
TGI (MDA-N): > 100 µM
GI50 (NCI-H322M lung): 49.9 µM
TGI (NCI-H322M lung): > 100 µM
GI50 (SNB-75 CNS): > 100 µM
TGI (SNB-75 CNS): > 100 µM
GI50 (SF-295 CNS): 45.7 µM
TGI (SF-295 CNS): > 100 µM
GI50 (SK-OV-3 ovarian): > 100 µM
TGI (SK-OV-3 ovarian): > 100 µM
GI50 (HCT-116 colon): 77.2 µM
TGI (HCT-116 colon): > 100 µM
GI50 (A498 renal): > 100 µM
TGI (A498 renal): > 100 µM
GI50 (SK-MEL-5 melanoma): > 100 µM
TGI (SK-MEL-5 melanoma): > 100 µM
GI50 (A549 NSCLC): > 100 µM
TGI (A549 NSCLC): > 100 µM
GI50 (NCI/ADR-RES ovarian): > 100 µM
TGI (NCI/ADR-RES ovarian): > 100 µM
GI50 (MOLT-4 leukemia): > 100 µM
TGI (MOLT-4 leukemia): > 100 µM
GI50 (OVCAR-5 ovarian): > 100 µM
TGI (OVCAR-5 ovarian): > 100 µM
GI50 (786-0 renal): > 100 µM
TGI (786-0 renal): > 100 µM
GI50 (CCRF-CEM leukemia): 67.4 µM
TGI (CCRF-CEM leukemia): > 100 µM
GI50 (MDA-MB-435): > 100 µM
TGI (MDA-MB-435): > 100 µM
GI50 (MDA-MB-231 breast): > 100 µM
TGI (MDA-MB-231 breast): > 100 µM
GI50 (UACC-62 melanoma): > 100 µM
TGI (UACC-62 melanoma): > 100 µM
GI50 (SW-620 colon): > 100 µM
TGI (SW-620 colon): > 100 µM
GI50 (SN12C renal): > 100 µM
TGI (SN12C renal): > 100 µM
GI50 (HCT-15 colon): 36 µM
TGI (HCT-15 colon): > 100 µM
GI50 (U251 CNS): > 100 µM
TGI (U251 CNS): > 100 µM
GI50 (SK-MEL-28 melanoma): > 100 µM
TGI (SK-MEL-28 melanoma): > 100 µM
GI50 (SK-MEL-2 melanoma): > 100 µM
TGI (SK-MEL-2 melanoma): > 100 µM
GI50 (M14 melanoma): 90 µM
TGI (M14 melanoma): > 100 µM
GI50 (OVCAR-3 ovarian): > 100 µM
TGI (OVCAR-3 ovarian): > 100 µM
GI50 (SR leukemia): 81.5 µM
TGI (SR leukemia): > 100 µM
GI50 (HT29 colon): 84.6 µM
TGI (HT29 colon): > 100 µM
GI50 (EKVX NSCLC): > 100 µM
TGI (EKVX NSCLC): > 100 µM
GI50 (RXF 393 renal): > 100 µM
TGI (RXF 393 renal): > 100 µM
GI50 (K-562 leukemia): > 100 µM
TGI (K-562 leukemia): > 100 µM
GI50 (OVCAR-8 ovarian): > 100 µM
TGI (OVCAR-8 ovarian): > 100 µM
GI50 (NCI-H226 lung): 47.3 µM
TGI (NCI-H226 lung): > 100 µM
GI50 (MCF7 breast): > 100 µM
TGI (MCF7 breast): > 100 µM
GI50 (KM12 colon): > 100 µM
TGI (KM12 colon): > 100 µM
GI50 (SF-539 CNS): 52.5 µM
TGI (SF-539 CNS): > 100 µM
GI50 (DU-145 prostate): > 100 µM
TGI (DU-145 prostate): > 100 µM
GI50 (PC-3 prostate): > 100 µM
TGI (PC-3 prostate): > 100 µM
GI50 (LOX IMVI melanoma): 47.7 µM
TGI (LOX IMVI melanoma): > 100 µM
GI50 (COLO 205 colon): > 100 µM
TGI (COLO 205 colon): > 100 µM
GI50 (HL-60(TB) leukemia): 19.9 µM
TGI (HL-60(TB) leukemia): > 100 µM
GI50 (OVCAR-4 ovarian): 76.4 µM
TGI (OVCAR-4 ovarian): > 100 µM
GI50 (TK-10 renal): > 100 µM
TGI (TK-10 renal): > 100 µM
GI50 (IGROV1 ovarian): > 100 µM
TGI (IGROV1 ovarian): > 100 µM
GI50 (UO-31 renal): 56.7 µM
TGI (UO-31 renal): > 100 µM
GI50 (SNB-19 CNS): > 100 µM
TGI (SNB-19 CNS): > 100 µM
GI50 (UACC-257 melanoma): > 100 µM
TGI (UACC-257 melanoma): > 100 µM
GI50 (ACHN renal): 63.2 µM
TGI (ACHN renal): > 100 µM
GI50 (CAKI-1 renal): 69.7 µM
TGI (CAKI-1 renal): > 100 µM
